One molecule from US12636287B2, “Organic compounds” (INTRA-CELLULAR THERAPIES, INC., priority 2018, dated 2026) can be followed below.

By UniProt entry, the sequences of proteins in these tests, tags left out. Where a name states a change or a piece, a line headed by the entry shows the natural chain unless it says otherwise.
UniProt Q9Y233: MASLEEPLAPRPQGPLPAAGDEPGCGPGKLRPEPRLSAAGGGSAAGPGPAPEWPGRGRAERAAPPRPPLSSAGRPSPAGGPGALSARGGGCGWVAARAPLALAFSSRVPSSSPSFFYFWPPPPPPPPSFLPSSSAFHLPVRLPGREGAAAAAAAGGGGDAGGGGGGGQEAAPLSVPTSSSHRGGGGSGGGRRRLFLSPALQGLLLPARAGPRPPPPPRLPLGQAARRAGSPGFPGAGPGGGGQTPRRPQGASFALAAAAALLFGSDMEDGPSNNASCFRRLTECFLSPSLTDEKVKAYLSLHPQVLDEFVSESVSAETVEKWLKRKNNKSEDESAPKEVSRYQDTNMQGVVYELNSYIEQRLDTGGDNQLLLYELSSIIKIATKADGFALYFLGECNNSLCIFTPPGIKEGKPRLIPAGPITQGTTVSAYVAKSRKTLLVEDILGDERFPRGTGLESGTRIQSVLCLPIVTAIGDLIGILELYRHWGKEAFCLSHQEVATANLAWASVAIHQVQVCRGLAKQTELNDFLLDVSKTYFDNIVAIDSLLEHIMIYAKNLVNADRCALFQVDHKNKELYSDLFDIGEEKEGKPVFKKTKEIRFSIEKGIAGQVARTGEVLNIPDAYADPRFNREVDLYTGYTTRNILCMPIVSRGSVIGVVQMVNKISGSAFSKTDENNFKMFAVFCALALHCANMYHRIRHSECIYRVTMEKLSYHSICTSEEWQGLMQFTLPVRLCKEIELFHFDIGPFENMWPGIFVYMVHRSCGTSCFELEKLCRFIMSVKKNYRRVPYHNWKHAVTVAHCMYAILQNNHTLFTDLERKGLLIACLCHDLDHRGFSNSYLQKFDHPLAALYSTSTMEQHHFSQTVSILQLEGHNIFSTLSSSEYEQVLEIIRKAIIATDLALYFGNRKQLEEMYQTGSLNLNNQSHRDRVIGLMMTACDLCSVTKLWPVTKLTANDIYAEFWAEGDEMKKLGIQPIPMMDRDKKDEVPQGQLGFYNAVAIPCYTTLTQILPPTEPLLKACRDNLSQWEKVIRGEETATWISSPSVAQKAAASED
UniProt Q13370: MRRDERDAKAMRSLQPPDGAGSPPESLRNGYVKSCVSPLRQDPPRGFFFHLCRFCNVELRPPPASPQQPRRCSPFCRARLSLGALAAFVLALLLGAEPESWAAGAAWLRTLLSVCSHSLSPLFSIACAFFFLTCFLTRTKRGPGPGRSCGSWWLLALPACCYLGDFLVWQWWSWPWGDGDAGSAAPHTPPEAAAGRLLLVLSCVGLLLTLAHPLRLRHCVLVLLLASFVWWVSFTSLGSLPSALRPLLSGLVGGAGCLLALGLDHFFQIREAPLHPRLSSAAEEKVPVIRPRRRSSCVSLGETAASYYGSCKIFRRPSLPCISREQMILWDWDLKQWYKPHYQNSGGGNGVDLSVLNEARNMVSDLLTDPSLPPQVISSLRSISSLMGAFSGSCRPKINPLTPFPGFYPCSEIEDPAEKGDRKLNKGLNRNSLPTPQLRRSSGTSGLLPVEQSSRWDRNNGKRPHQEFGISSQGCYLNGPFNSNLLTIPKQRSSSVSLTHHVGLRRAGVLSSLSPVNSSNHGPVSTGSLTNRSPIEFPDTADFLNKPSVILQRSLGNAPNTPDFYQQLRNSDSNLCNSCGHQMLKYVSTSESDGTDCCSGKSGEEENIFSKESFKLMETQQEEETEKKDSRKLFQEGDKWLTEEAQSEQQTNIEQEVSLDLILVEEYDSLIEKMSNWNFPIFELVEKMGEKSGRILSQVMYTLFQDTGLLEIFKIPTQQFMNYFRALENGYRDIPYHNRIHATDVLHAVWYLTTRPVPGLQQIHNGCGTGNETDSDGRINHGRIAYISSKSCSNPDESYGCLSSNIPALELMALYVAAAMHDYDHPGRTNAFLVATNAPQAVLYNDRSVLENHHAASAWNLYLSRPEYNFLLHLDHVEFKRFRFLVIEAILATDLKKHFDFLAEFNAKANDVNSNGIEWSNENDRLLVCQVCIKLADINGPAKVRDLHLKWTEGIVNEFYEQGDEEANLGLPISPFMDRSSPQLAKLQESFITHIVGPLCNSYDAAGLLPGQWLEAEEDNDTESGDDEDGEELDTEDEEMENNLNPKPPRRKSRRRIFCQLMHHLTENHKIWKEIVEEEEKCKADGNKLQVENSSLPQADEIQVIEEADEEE
UniProt Q9NP56: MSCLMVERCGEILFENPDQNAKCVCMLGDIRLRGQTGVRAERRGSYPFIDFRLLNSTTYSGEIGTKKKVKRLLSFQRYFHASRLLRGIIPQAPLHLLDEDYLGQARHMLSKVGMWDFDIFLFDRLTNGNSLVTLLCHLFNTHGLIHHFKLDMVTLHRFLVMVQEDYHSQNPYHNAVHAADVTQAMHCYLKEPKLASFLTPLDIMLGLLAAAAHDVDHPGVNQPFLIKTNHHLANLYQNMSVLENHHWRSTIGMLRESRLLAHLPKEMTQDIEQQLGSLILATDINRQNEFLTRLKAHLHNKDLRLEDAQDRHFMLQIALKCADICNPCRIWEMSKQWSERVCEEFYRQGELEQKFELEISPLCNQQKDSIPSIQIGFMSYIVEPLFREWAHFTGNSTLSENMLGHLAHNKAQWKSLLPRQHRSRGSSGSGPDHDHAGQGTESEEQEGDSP

For test [1], the target named is hPDE10A (Homo sapiens, UniProt Q9Y233).
Test [2] deals with PDE activity in the UWLV301 cell line. Conditions: compared with Ki for purified PDE1C.
Test [3] addresses hPDE3B (Homo sapiens, UniProt Q13370).
Test [4] deals with hPDE7B (Homo sapiens, UniProt Q9NP56).
The test system of test [5] is PDE activity in the UWLV304 cell line. The conditions noted are these: compared with Ki for purified PDE1C.
The target of test [6] is r-bovine PDE5A (Bos taurus, UniProt Q28156). As to the kind of experiment: biochemical.

As usually defined, the Ki is a dissociation constant, usually derived from enzyme kinetics or from competition with a known ligand. A lower Ki goes with higher affinity.

Regarding `CN1C(=O)c2c(nn(Cc3ccc(-c4cccc(F)n4)cc3)c2Nc2ccccc2)N2C1=N[C@@H]1CCC[C@@H]12` [Compound 1], the Ki in test [1] came out at 1800 nM; in test [3], 3100 nM; in test [4], 360 nM; in test [6] it was 630 nM. In addition, the “IC50 for inhibition of PDE activity” value in test [2] and in test [5] was “closely matched the Ki value obtained for purified PDE1C” throughout.
